The text below walks through data of US9051591B2, “Bacterium of enterobacteriaceae family producing L-aspartic acid or L-aspartic acid-derived metabolites and a method for producing L-aspartic acid or L-aspartic acid-derived metabolites” (AJINOMOTO CO., INC., priority 2010, dated 2015).

Holding throughout (test): purified protein, by the assay type
Data set [1] has as its system NADH. The note with it: other: Oxaloacetate reductive amination.
Data set [2] relates to NADPH. To be noted: other: Oxaloacetate reductive amination.
For data set [3], the system named is NADP^+.
The mark [4] stands for this setting: other: Aspartic acid oxidative deamination, Michaelis-Menten plots.
The mark [5] stands for this setting: other: Aspartic acid oxidative deamination.
Setting [6] is: other: Aspartate oxidative deamination.

The term Km denotes the concentration of substrate that gives half-maximal velocity. For orientation: Vmax means the rate approached at saturating substrate. For orientation: kcat means the number of substrate molecules converted per active site and unit of time at saturation. As usually defined, the kcat/Km is the turnover number divided by the Michaelis constant. Regarding “Polaromonas sp. ADH (Polaromonas sp. JS666)”, the Km in data set [1] (Hill kinetic equation plots) is 68 ± 5 µM; in data set [1] (Michaelis-Menten plots) it was 190 ± 40 µM; in data set [2] (Hill kinetic equation plots), 150 ± 20 µM; in data set [2] (Michaelis-Menten plots) it was 400 ± 60 µM; in data set [3] (setting [4]), 510 ± 30 µM. In addition, the Vmax in data set [1] (Hill kinetic equation plots) was determined as 80 µmol/min/mg; in data set [1] (Michaelis-Menten plots), 140 µmol/min/mg; in data set [2] (Hill kinetic equation plots), 54 µmol/min/mg; in data set [2] (Michaelis-Menten plots) it was 97 µmol/min/mg; in data set [3] (setting [4]) it was 7.5 µmol/min/mg. Further, the kcat in data set [1] (Hill kinetic equation plots) is 36.8 s⁻¹; in data set [1] (Michaelis-Menten plots) it was 63.3 s⁻¹; in data set [2] (Hill kinetic equation plots), 24.8 s⁻¹; in data set [2] (Michaelis-Menten plots), 45 s⁻¹; in data set [3] (setting [4]) it was 3.47 s⁻¹. For the same substance, the kcat/Km in data set [1] (Hill kinetic equation plots) was 550000 M⁻¹ s⁻¹; in data set [1] (Michaelis-Menten plots), 350000 M⁻¹ s⁻¹; in data set [2] (Hill kinetic equation plots), 167000 M⁻¹ s⁻¹; in data set [2] (Michaelis-Menten plots) it was 117000 M⁻¹ s⁻¹; in data set [3] (setting [4]), 6670 M⁻¹ s⁻¹.
As for “Rhodopseudomonas palustris ADH1-Rp (Rhodopseudomonas palustris HaA2)”, in data set [1], the Km came to 4500 µM, the Vmax was determined as 10.1 ± 0.6 µmol/min/mg, the kcat was found to be 5.17 ± 0.333 s⁻¹ and the kcat/Km was determined as 1150 ± 183 M⁻¹ s⁻¹. In data set [2], the Km was found to be 210 µM, the Vmax turned out to be 37 µmol/min/mg, the kcat is 19.2 s⁻¹ and the kcat/Km stood at 83300 M⁻¹ s⁻¹. Further, in data set [3] (setting [5]), the Km was determined as 102 ± 11 µM, the Vmax stood at 4.57 µmol/min/mg, the kcat worked out at 2.33 s⁻¹ and the kcat/Km is 23300 M⁻¹ s⁻¹.
On to “Bradyrhizobium japonicum ADH-Bj (Bradyrhizobium diazoefficiens USDA 110)”, for which, in data set [1], the Km is 250 µM, the Vmax came to 51 ± 3 µmol/min/mg, the kcat was 26.17 ± 1.5 s⁻¹ and the kcat/Km is 103300 M⁻¹ s⁻¹. Further, in data set [2], the Km came out at 32 µM, the Vmax amounted to 79 ± 3 µmol/min/mg, the kcat was determined as 40.83 ± 1.67 s⁻¹ and the kcat/Km was found to be 1.2833e+06 M⁻¹ s⁻¹. In data set [3] (setting [6]), the Km turned out to be 120 ± 20 µM, the Vmax was 12.1 µmol/min/mg, the kcat amounted to 6.17 s⁻¹ and the kcat/Km came to 53300 M⁻¹ s⁻¹.
